# Assay results from US10632147B2, “Methods and compositions for treating inflammatory disorders” (priority 2007, dated 2020).
# Tested on: Propionibacterium acnes
# Test: Log10 reduction assay (suspension test) against P. acnes
# Settings: solution ≤145 ppm AFC, spray gel 40 ppm AFC
smiles,measurement,setting,value
OCl [hypochlorous acid],Log Reduction,5-min contact time,≥5.67
same,Test Sample Log10,5-min contact time,≤1
same,Test Sample Survivors,5-min contact time,<10
same,Log Reduction,15-sec contact time,≥5.67
same,Test Sample Log10,15-sec contact time,≤1
same,Test Sample Survivors,15-sec contact time,<10
